pEC50: −log10 of the molar value. Blank lines part the entries; values can stand above or below the compound they belong to.
Columns and labels:
K562 CD11b/CD18 cells = assay: Cell viability assay (MTS); settings: 24 h; concentrations as high as 50 μM
Procedure: Cell viability assay was performed as described. Briefly, K562 CD11b/CD18 cells (10,000/well) were incubated in 96 well plates (Corning, Corning, N.Y.) with increasing amounts of indicated compound for 24 h. The number of viable cells after 24 h was determined by using MTS reagent according to manufacturers protocol (Promega, Madison, Wis.) and using Spectramax M5 spectrophotometer (Molecular Devices) for reading of the assay plates. Data presented is representative of at least two independent experiments.

integrin CD11b/CD18 [1] = biological target: T1, integrin CD11b/CD18 (Homo sapiens, UniProt P11215); assay: K562 cell adhesion assay, K562 CD11b/CD18 cells on immobilized fibrinogen (Fg); settings: read-out: EC50 (effective concentration for 50% increase in adhesion), CD11b/CD18 dependent cell adhesion to Fg
Procedure: (§1) Cell adhesion assays with immobilized ligands were performed as previously described. Assays with all different K562 cell lines (K562, K562 CD11b/CD18 and K562 E320A) were performed in an identical fashion. Briefly, 384-well Highbind microtiter plates were coated with a 30 μL solution of ligand in Phosphate Buffered Saline, pH 7.4 containing 1 mM each of Ca^2+ and Mg^2+ ions (PBS^++) overnight at 4° C. Ligand Fg was coated at a concentration of […] and iC3b at […]. Heterodimer specific mAb IB4 (ascites) was coated at a 1:100 dilution. Subsequently, the non-specific sites in the wells were blocked by incubation with 1% non-fat milk in Tris Buffered Saline (TBS), pH 7.4, at room temperature for 1 h, except for the neutrophil assay, where the wells were blocked with TBS containing 1% gelatin. Next, the wells were washed three times with TBS. K562 cells were suspended in the assay buffer (TBS containing 1 mM each of Ca^2+ and Mg^2+ ions (TBS^++)) and were transferred to the ligand-coated wells (30,000 cells/well). Stock solution of the leukadherin family of small molecule agonists was prepared by dissolving the compounds in DMSO at a concentration of 2-10 mM. Final concentration of DMSO in the assay was approximately 1%. […] Cells remaining adherent were fixed using formaldehyde and were quantitated using imaging microscopy, as previously described. […]

integrin CD11b/CD18 [2] = biological target: T1, integrin CD11b/CD18; assay: K562 CD11b/CD18 cell adhesion to immobilized iC3b; settings: increasing amounts of compound
Procedure: as §1

WT B6 mice = assay: Thioglycollate-induced peritonitis, WT mice; settings: given 30 min prior to thioglycollate, 4 h, vs vehicle
Procedure: Thioglycollate-induced peritonitis was performed as previously described, using 8-10 week old WT B6 and CD11b^−/− B6 mice. Leukadherin agonists were administered thirty min prior to intra peritoneal (i.p.) thioglycollate (3%) injection. LA1 and LA2 ([…] of 20 mM solution in saline) were administered intra venously (i.v.). LA3 was administered i.p. (1 mL of 20 mM solution in saline). To evaluate peritoneal neutrophil recruitment, […], the peritoneal lavage was collected and the number of emigrated neutrophils was quantified using double positive cells for GR-1 and Mac-1 staining as described.
To determine the effects of LA1-3 on inflammatory responses in vivo, we monitored their effects on neutrophil recruitment upon acute thioglycollate-induced peritonitis in mice.

murine neutrophils = assay: Neutrophil chemotaxis assay in Zigmond chamber, fMLP gradient; settings: vs DMSO
Procedure: Neutrophil chemotaxis on 2D surfaces was performed using Zigmond chamber (Neuro Probe) as described on acid cleaned glass or Fg coated glass coverslips. Cell migration was allowed in a gradient of […] bacterial peptide formyl-methionyl-leucyl-phenylalanine (fMLP, Sigma), in the absence or presence of leukadherins ([…]). Cell migration was recorded at every 30 sec interval for a period of 25 min using a Nikon Eclipse 90i inverted microscope. Images were acquired with a Nikon DS camera using a PLAN APO 20X differential interference contrast (DIC) microscopy objective and captured into Nikon Imaging software. Analysis of neutrophil migration was performed with the motile population that had moved more than 10 μm using ImageJ software (NIH, USA) with manual cell tracking using the Ibidi chemotaxis and migration tool plugin for ImageJ. Migration velocity and the total displacement (distance from origin) were also analyzed. Quantitation was performed using at least 50 independent cells per condition from at least three independent experiments.
Leukocyte chemotaxis on 2D surfaces involves integrin-mediated sequential adhesion and de-adhesion steps [77]. […] To test if increased cell-adhesion by leukaderins affects cell migration, we used murine neutrophils chemotaxing in response to a gradient of chemokine peptide formyl-Met-Leu-Phe (fMLP). […] However, treatment with LA1, LA2 or LA3 lead to a significant decrease in the lateral migration and the migration velocity of these cells (FIG. 2A-C). […] Yet, leukadherins reduced the efficiency of trans-endothelial migration (TEM) by THP-1 cells across a TNFα-activated HUVEC layer in vitro by increasing cell adhesion to the HUVEC layer.

- pEC50 (integrin CD11b/CD18 [1]): 4.85
SMILES: CCOC(=O)CN1C(=O)SC(=Cc2ccc(-c3ccc(Cl)cc3Cl)o2)C1=O
- in vitro cytotoxicity to K562 cells (K562 CD11b/CD18 cells): no cytotoxicity
- K562 CD11b/CD18 cells adhering to immobilized iC3b (integrin CD11b/CD18 [2]): increase binding of CD11b/CD18 to iC3b in a dose-dependent fashion
- reduction of peritoneal neutrophil accumulation (WT B6 mice): 55%
- lateral migration of neutrophils (murine neutrophils): significant decrease
- migration velocity of neutrophils (murine neutrophils): significant decrease

SMILES: O=C(O)c1ccc(-c2ccc(C=C3SC(=O)N(c4ccccc4)C3=O)o2)cc1
- in vitro cytotoxicity to K562 cells (K562 CD11b/CD18 cells): no cytotoxicity
- pEC50 (integrin CD11b/CD18 [1]): 4.92
- K562 CD11b/CD18 cells adhering to immobilized iC3b (integrin CD11b/CD18 [2]): increase binding of CD11b/CD18 to iC3b in a dose-dependent fashion
- reduction of peritoneal neutrophil accumulation (WT B6 mice): 65%
- lateral migration of neutrophils (murine neutrophils): significant decrease
- migration velocity of neutrophils (murine neutrophils): significant decrease

Reference: patent publication US9023876B2, “Compounds and methods for regulating integrins” (Adhaere Pharmaceuticals, Inc., priority 2010, dated 2015)
